# Results from US20050096381A1, “Derivatives of isoflavones” (YEDA & MEDICAL RESEARCH, priority 2002, published 2005).
# Test system: E304 endothelial cells (expressing mainly ERα)
# Assay: DNA synthesis by [3H]-thymidine incorporation in E304 cells
# Conditions: cells bearing mainly ERα
substance,measurement,value
6-carboxymethyl biochanin A daunomycin conjugate [Cbio-daunomycin],cytotoxic activity towards E304 cells (in words),potent cytotoxic activity
